# Antibody variant affinities, Ab-91 heavy chain, assay 2

Reference: Engelhart et al. 2022, doi:10.1038/s41597-022-01779-4. File: FLAb, binding data.

All variants were tested on one target, the spike HR2 peptide PDVDLGDISGINAS (SARS-CoV-2).

Parent scFv Ab-91: VL joined to VH by the linker GGGGSGGGGSGGGGS. Changes lie in the heavy chain CDRs alone.
VL: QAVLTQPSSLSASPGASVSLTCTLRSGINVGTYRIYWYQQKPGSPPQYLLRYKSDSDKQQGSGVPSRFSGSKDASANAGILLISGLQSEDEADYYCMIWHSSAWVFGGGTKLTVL
VH: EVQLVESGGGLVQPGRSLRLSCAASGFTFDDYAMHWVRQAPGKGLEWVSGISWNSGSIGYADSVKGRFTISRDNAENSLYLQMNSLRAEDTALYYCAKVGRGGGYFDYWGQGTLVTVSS

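Phage display of a naive human antibody library on the peptide gave the parent. AAYL51 was designed without a model: most single CDR substitutions and a random sample of double and triple ones. Affinity was read by AlphaSeq, a pooled yeast mating assay with surface-displayed partners. Mating (16 h, 30 °C) was followed by selection of diploids and sequencing of their barcodes. A regression on co-assayed BCL2-family reference pairs converts the normalised counts of each replicate to an apparent Kd. Each pool was mated in three replicate cultures.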

Changes read parent residue, position, new residue, counted from the first residue of the VH shown. Every variant below is changed at H35 of the VH (sequential numbering). The Kd shown is the geometric mean over detected replicates; a lower Kd is a better binder. "nd" marks a missing value. The strain was present, yet no cells mated with the target were sequenced in any replicate, which points to weak or no binding. As a blank, each scFv also met three strains without target: over library AAYL51, 21% of these pairings were detected, typically at 34 µM and seldom below 1.8 µM.

The variant H35I/S55M/I58Y showed nd (0 of 3 replicates). The variant H35C/N54I/V99Y showed nd (0 of 3 replicates). For D31K/H35W/I58W, the assay gave 2.4 µM (1 of 3 replicates). The variant H35Q/Y105G/D107S gave nd (0 of 3 replicates). With F27A/H35Y/W53T the result was 110 µM (1 of 3 replicates). The variant M34K/H35D/G104I showed 28 µM (1 of 3 replicates). The variant H35F/S63W/F106M showed nd (0 of 3 replicates).

The variant H35S/W53H/D107G gave nd (0 of 3 replicates). The variant H35S/G102T showed 780 µM (2 of 3 replicates). The variant H35M/G50Y/Y105D gave 8.6 µM (1 of 3 replicates). The variant H35V/G50T/G100A showed nd (0 of 3 replicates). For Y32G/H35Q/Y60I, the assay gave 260 µM (1 of 3 replicates). With G26D/H35Q/A61Q the result was 51 µM (1 of 3 replicates). For T28E/D30E/H35M, the assay gave 9.4 µM (1 of 3 replicates).

The variant G26V/H35C/S63G showed 41 µM (1 of 3 replicates). For T28F/H35E/Y108R, the assay gave 6.9 µM (2 of 3 replicates). With F29G/H35L/D107W the result was 430 µM (1 of 3 replicates). With D30P/H35Q/Y60P the result was nd (0 of 3 replicates). For H35D/S52M/G103I, the assay gave nd (0 of 3 replicates). With H35S/Y60V/G100V the result was 18 µM (1 of 3 replicates). The variant H35T/S57G/Y60H gave nd (0 of 3 replicates).

For F29C/H35A/G102F, the assay gave 52 µM (2 of 3 replicates). With F27Y/D31Q/H35P the result was 2.5 mM (2 of 3 replicates). With A33R/H35N/S57L the result was 5.5 µM (1 of 3 replicates). For M34W/H35D/K65Q, the assay gave 11 µM (1 of 3 replicates). The variant D30H/H35W gave 290 µM (1 of 3 replicates). For Y32H/H35T/I58E, the assay gave 990 µM (3 of 3 replicates). With H35E/N54F the result was nd (0 of 3 replicates).

With H35E/G100F the result was nd (0 of 3 replicates). The variant H35R/I51F/G56S gave 190 µM (3 of 3 replicates). With H35E/I51G/S57A the result was 980 µM (1 of 3 replicates). The variant H35N/N54Q/D62T showed nd (0 of 3 replicates). For H35S/R101A/G104D, the assay gave 22 µM (2 of 3 replicates). The variant D30K/Y32D/H35A gave 55 µM (2 of 3 replicates). The variant D30C/H35Y/S63H gave nd (0 of 3 replicates).

With H35Y/G50V/F106E the result was 560 µM (1 of 3 replicates). With H35M/Y60E/G103L the result was 610 µM (1 of 3 replicates). For H35G, the assay gave nd (0 of 3 replicates). With D31L/H35P/G104R the result was 50 µM (1 of 3 replicates). The variant H35E/K65N gave nd (0 of 3 replicates). For F27P/D31Y/H35F, the assay gave nd (0 of 3 replicates). The variant D31S/H35N/S57M showed 88 µM (1 of 3 replicates).

For H35T/N54T/G103S, the assay gave nd (0 of 3 replicates). With G26N/Y32T/H35M the result was 49 µM (2 of 3 replicates).

The last 2 entries again:

| changes | Kd (apparent) | seen in |
|---|---|---|
| H35T/N54T/G103S | nd | 0 of 3 |
| G26N/Y32T/H35M | 49 µM | 2 of 3 |